The numbers were not newly measured in US20180055915A1, “COMPOSITIONS AND METHODS FOR TREATING PROSTATE CANCER” (UNIVERSITY OF ROCHESTER, priority 2016, published 2018), which cites them from elsewhere.

Molecules are shown by their SMILES.

In this data set the test system is wild type AR, ARv7, AR-F876L. Conditions: cited from earlier work.

As to `CNC(=O)c1ccc(N2C(=S)N(c3ccc(C#N)c(C(F)(F)F)c3)C(=O)C2(C)C)cc1F` [Enz, 4-(3-(4-Cyano-3-(trifluoromethyl)phenyl)-5,5-dimethyl-4-oxo-2-thioxoimidazolidin-1-yl)-2-fluoro-N-methylbenzamide], the “degradation of wild type AR, ARv7 and AR mutants including AR-F876L” value is “not”.
